Experimental data published in patent US9675617B2, “Tetrahydrofolates in combination with EGFR-inhibitors” (ISOFOL MEDICAL AB, priority 2012, dated 2017).

Tests used:
LoVo tumor cells = test: Anti-tumoral efficacy in the colorectal adenocarcinoma xenograft model LoVo; format: in vivo, NCr nu/nu mice
Description: Purpose: To determine the anti-tumoral efficacy of methylene-THF in combination with cetuximab in the colorectal adenocarcinoma xenograft model LoVo.
(§1) Study Design: A total of 50 female NCr nu/nu mice (10 per group) at the age of 8-12 weeks were injected with 1×10^7 LoVo tumor cells in 50% Matrigel sc in flank. After seven days they were administered intraperitoneal injections according to the schedule in table 2. Animals were monitored individually. The endpoint of the experiment was a tumor weight of 1000 mm^3 or 75 days, whichever came first. Responders could be followed longer. When the endpoint was reached, the animals were euthanized. Body weight (g) and tumor volume (mm^3) was measured on days 1, 2, 3, 4, 5, 7, 11, 14, 18, 21, 25, 28, 32, 35, 39, 42, 46, 49, 53, 56, 60, 63, 67, 70 and 74.

[1] = Body weight and deaths (side effects) in the LoVo xenograft study; format: in vivo, NCr nu/nu mice
Description: as §1

## cetuximab [Group 2]
LoVo tumor cells; LoVo sc xenograft, 10 mice per group, ip dosing per Table 2, TP not defined
  No of TP: 8
LoVo tumor cells; LoVo xenograft, days 1-74
  Median tumor volume over time (FIG. 2), in words: least favorable development
LoVo tumor cells; endpoint: tumor weight of 1000 mm^3 or 75 days, whichever came first
  Median Time to Endpoint: 56.7 days
LoVo tumor cells; versus vehicle group 1
  Percent tumor growth delay (TGD): 122%
[1]; 10 mice per group, ip dosing per Table 2
  No of treatment related deaths: 0
[1]; mouse, in vivo
  Development of median body weight over time (FIG. 4), in words: weight increase better than the other groups including vehicle
